Data: paper PMC4503722, “Novel Phenotypic Outcomes Identified for a Public Collection of Approved Drugs from a Publicly Accessible Panel of Assays” (PLoS ONE, 2015)

The chains behind the UniProt entries cited, without tags or fusion partners. Where a name states a change or a piece, a line headed by the entry shows the natural chain unless it says otherwise. Residues count along the entry.
UniProt O60674: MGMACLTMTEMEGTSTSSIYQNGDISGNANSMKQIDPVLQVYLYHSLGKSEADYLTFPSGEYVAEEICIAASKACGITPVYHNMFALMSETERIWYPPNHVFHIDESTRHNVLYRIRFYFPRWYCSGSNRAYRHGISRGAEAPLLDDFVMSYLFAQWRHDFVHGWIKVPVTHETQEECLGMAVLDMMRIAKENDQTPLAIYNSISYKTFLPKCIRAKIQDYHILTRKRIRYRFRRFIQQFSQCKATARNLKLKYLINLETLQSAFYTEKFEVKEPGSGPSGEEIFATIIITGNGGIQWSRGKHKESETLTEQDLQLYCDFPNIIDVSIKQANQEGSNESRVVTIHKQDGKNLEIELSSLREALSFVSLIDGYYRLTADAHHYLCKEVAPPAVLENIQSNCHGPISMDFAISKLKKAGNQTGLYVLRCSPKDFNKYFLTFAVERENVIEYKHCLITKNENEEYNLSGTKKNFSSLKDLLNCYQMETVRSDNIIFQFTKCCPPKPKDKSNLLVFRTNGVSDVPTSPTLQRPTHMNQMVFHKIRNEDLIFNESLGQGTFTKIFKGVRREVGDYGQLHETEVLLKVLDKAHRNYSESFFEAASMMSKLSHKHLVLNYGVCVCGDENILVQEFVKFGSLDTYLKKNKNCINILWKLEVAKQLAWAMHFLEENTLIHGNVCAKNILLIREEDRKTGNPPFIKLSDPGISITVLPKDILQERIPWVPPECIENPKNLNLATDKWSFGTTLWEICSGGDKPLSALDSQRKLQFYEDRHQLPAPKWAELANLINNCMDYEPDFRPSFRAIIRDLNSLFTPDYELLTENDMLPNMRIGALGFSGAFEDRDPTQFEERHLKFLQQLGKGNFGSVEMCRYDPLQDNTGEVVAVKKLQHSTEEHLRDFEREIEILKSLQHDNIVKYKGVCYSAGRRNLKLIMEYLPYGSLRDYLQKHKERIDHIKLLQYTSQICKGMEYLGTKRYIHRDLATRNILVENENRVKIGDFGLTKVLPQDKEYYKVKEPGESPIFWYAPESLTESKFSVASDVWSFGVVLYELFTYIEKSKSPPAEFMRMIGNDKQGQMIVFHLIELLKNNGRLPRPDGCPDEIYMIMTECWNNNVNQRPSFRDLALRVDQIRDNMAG
UniProt P36888, 27-993: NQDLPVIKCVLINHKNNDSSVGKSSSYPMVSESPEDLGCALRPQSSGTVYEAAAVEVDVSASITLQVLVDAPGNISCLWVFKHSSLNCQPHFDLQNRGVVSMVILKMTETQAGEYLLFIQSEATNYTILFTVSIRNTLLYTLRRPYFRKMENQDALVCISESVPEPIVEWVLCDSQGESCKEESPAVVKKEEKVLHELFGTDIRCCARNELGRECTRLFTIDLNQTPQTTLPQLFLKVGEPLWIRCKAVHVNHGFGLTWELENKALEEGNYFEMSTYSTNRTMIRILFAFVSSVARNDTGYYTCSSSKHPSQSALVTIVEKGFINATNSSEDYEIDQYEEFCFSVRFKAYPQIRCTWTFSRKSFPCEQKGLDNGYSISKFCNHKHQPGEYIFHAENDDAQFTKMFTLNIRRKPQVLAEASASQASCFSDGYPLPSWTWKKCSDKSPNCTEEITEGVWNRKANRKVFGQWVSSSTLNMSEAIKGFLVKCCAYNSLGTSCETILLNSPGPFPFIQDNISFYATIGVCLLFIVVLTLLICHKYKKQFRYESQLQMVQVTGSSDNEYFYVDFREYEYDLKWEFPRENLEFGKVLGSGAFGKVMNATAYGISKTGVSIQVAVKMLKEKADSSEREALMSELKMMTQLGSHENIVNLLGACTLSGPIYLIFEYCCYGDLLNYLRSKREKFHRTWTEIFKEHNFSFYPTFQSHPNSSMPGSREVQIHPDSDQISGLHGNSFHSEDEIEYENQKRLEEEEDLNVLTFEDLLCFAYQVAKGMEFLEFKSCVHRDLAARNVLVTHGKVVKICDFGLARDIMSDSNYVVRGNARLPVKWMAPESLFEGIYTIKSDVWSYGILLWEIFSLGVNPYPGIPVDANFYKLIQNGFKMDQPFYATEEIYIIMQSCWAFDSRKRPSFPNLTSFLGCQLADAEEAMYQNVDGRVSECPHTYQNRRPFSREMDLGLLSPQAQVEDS
UniProt P23443: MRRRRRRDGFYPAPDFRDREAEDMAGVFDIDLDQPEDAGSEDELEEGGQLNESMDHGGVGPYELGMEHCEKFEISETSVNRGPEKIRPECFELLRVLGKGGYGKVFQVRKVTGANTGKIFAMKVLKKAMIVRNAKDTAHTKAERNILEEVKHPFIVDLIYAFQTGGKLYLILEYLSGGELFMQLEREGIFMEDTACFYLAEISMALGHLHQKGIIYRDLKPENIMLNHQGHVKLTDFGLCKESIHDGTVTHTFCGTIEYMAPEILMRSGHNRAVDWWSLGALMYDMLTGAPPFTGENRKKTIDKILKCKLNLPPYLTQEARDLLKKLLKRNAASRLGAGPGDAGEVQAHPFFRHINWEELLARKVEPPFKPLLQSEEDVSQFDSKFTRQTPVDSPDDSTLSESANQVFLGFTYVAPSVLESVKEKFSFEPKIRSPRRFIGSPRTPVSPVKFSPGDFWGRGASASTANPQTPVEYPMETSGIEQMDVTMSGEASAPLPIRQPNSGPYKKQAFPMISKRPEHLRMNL
UniProt P49841: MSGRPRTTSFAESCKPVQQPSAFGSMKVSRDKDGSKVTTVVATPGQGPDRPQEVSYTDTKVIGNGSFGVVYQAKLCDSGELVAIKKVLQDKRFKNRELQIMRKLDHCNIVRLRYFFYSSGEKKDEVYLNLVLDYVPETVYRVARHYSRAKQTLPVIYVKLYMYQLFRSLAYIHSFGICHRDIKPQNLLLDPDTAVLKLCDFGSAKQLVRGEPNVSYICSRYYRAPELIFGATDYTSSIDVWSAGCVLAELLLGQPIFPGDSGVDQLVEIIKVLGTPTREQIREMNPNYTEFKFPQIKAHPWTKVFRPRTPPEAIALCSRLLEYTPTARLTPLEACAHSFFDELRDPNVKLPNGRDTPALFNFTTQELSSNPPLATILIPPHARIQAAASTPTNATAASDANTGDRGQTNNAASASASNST

Experiments:
hJAK2 = molecular target: T1, hJAK2 (Homo sapiens, UniProt O60674); test: Cerep LANCE kinase assay hJAK2 (S1 assay 33); format: biochemical
T1 construct: purchased Cerep (LANCE kinase assay platform, contract assay)

hFLT3 = molecular target: T2, hFLT3 (Homo sapiens, UniProt P36888); test: Cerep LANCE kinase assay hFLT3 (S1 assay 35); format: biochemical
T2 construct: purchased Cerep (LANCE kinase assay platform, contract assay)

hp70S6K1 (RPS6KB1) = molecular target: T3, hp70S6K1 (RPS6KB1) (Homo sapiens, UniProt P23443); test: Cerep LANCE kinase assay hp70S6K1 (S1 assay 31); format: biochemical
T3 construct: purchased Cerep (LANCE kinase assay platform, contract assay)

hGSK3b = molecular target: T4, hGSK3b (Homo sapiens, UniProt P49841); test: Cerep LANCE kinase assay hGSK3b (S1 assay 34); format: biochemical
T4 construct: purchased Cerep (LANCE kinase assay platform, contract assay)

[1] = tested on: ECFC/ADSC co-culture cell nuclei number; details: human

Compound: CCN(CC)CCOc1ccc(C(=C(Cl)c2ccccc2)c2ccccc2)cc1 [Clomiphene]
- IC50 (hJAK2): > 20 µM
- IC50 (hFLT3): > 20 µM
- IC50 (hp70S6K1 (RPS6KB1)): > 20 µM
- IC50 (hGSK3b): > 20 µM

Compound: CCN(CC)CCOc1ccc(/C(=C(\Cl)c2ccccc2)c2ccccc2)cc1 [NCGC00164385-05]
- IC50/EC50, hJAK2 LANCE (assay number 33) (hJAK2): > 20 µM
- IC50/EC50, hFLT3 LANCE (assay number 35) (hFLT3): > 20 µM
- IC50/EC50, hp70S6K1 LANCE (assay number 31) (hp70S6K1 (RPS6KB1)): > 20 µM
- IC50/EC50, hGSK3b LANCE (assay number 34) (hGSK3b): > 20 µM

Compound: CC[C@H](C)C(=O)O[C@H]1C[C@@H](C)C=C2C=C[C@H](C)[C@H](CC[C@@H]3C[C@@H](O)CC(=O)O3)[C@H]21 [lovastatin, reference compound]
- cytotoxicity IC50 relative to IC50 for inhibition of endothelial cord formation [1]: 2–3 fold
